The text below walks through data of ChEMBL document CHEMBL2311513, “Fragment growing and linking lead to novel nanomolar lactate dehydrogenase inhibitors” (J Med Chem, 2013).

The target in the experiment is L-lactate dehydrogenase A chain (Homo sapiens, UniProt P00338). Nature of the experiment: Inhibition of human LDH-A.

With `NC(=O)C(=O)O` [OXAMATE], affinity was put at a Ki of 26 µM.
